Values of other authors in patent US20240207217A1, “IMPROVED TREATMENT METHODS FOR CABAZITAXEL” (ORBICULAR PHARMACEUTICAL TECHNOLOGIES PRIVATE LIMITED, priority 2020, published 2024).

Legend:
[1] = test system: complement; settings: alone, at equivalent concentrations
[2] = 3-hour paclitaxel infusion at 175 mg/m^2; average

- Complement activation compared with paclitaxel/Cremophor EL [1]: to the same extent
- Maximal serum concentration of Cremophor EL [2]: 3 mg/mL
Substance: polyoxyethylated castor oil [Cremophor EL]
